Results on one compound are retold here after ChEMBL document CHEMBL1153136, “Novel benzoylpiperidine-based stearoyl-CoA desaturase-1 inhibitors: Identification of 6-[4-(2-methylbenzoyl)piperidin-1-yl]pyridazine-3-carboxylic acid (2-hydroxy-2-pyridin-3-ylethyl)amide and its plasma triglyceride-lowering effects in Zucker fatty rats” (Bioorg Med Chem Lett, 2010).

The experiment has as its target T1, Acyl-CoA desaturase 1 (Mus musculus, UniProt P13516).
T1 sequence (P13516 whole entry): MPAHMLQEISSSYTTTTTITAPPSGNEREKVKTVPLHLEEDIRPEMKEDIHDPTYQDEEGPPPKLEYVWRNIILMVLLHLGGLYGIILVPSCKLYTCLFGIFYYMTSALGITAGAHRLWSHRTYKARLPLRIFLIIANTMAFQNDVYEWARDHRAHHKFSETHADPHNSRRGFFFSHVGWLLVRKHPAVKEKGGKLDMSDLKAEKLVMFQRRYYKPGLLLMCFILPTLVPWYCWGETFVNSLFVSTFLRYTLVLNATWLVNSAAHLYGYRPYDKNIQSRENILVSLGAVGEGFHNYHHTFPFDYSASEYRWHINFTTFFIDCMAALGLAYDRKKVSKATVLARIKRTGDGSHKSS
Nature of the experiment: Inhibition of Scd1 in mouse liver microsomes assessed as conversion of [14C]stearate to [14C]oleate pretreated for 10 mins measured after 60 mins. Set-up: species or system Microsome. (In general: Microsomes from liver hold many membrane-bound enzymes, among them those of drug oxidation.)

As for `O=C(NCCc1ccccc1)c1ccc(N2CCN(C(=O)c3ccccc3C(F)(F)F)CC2)nn1`, the IC50 – broadly, the point on the concentration scale where inhibition reaches its midpoint – turned out to be 6 nM.
